This note sets out measurements from patent US5747447A, “Stable polypeptide composition” (COR Therapeutics, priority 1995, dated 1998).

Protein sequences, listed by entry. Tags and fused reporters are not part of them. Residues count along the entry.
UniProt P05106, 27-788: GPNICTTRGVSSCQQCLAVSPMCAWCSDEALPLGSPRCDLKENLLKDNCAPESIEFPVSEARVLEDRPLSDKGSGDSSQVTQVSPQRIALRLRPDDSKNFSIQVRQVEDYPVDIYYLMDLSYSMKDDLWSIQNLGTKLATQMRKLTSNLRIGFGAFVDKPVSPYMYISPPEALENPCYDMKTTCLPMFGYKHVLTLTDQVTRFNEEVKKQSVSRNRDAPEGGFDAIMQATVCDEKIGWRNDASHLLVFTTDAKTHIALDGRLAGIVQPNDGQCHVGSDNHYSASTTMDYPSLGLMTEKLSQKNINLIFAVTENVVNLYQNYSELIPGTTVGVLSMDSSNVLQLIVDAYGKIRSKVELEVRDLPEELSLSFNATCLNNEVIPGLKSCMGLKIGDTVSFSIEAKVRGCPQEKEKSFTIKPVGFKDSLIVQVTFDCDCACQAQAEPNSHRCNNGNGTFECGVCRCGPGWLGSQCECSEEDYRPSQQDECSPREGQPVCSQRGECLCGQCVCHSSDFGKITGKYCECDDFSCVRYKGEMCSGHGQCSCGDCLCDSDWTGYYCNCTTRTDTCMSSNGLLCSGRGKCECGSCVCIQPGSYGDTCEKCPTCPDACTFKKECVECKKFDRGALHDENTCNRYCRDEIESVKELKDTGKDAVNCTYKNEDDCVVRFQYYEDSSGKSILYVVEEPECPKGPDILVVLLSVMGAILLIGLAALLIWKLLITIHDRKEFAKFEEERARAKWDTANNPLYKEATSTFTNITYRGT
UniProt P08514, 32-1039: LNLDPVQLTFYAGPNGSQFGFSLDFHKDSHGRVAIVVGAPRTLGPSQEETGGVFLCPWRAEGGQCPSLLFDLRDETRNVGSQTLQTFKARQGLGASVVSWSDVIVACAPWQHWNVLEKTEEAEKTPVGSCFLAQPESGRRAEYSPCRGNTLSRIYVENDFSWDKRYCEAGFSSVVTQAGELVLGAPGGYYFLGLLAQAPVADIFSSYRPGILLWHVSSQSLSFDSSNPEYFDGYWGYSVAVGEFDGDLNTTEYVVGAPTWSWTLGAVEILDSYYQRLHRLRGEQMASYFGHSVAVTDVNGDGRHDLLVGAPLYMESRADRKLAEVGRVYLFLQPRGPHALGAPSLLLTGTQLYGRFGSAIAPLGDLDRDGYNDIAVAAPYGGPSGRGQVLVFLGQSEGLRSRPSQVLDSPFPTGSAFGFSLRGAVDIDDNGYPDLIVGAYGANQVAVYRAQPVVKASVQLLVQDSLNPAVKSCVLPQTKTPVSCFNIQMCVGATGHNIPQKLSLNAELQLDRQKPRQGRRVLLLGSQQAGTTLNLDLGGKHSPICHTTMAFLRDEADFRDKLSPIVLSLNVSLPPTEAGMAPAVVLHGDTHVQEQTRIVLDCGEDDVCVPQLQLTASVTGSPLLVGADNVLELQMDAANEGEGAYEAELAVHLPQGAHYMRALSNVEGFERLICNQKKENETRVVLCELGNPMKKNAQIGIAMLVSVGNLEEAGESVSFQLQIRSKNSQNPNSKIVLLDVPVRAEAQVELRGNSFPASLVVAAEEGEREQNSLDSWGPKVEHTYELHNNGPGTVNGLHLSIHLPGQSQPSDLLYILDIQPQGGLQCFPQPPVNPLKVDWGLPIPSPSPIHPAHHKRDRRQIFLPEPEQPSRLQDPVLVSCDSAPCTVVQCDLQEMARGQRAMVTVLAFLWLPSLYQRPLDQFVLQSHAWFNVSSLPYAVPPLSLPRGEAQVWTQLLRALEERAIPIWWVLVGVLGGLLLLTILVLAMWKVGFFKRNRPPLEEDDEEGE

The target in this experiment is ADP-induced human platelet aggregation (Homo sapiens, UniProt P05106+P08514). In words: standard aggregation inhibition assay (ADP-induced human platelet aggregation). In kind it is cell-based. The conditions noted are these: read-out: Appr, IC50. The text has this: 2. Standard assays directly applied to platelet aggregation, such as those described by Gann, Z.-R., et al., J Biol Chem (1988) 263:19827-19832; Huang, T. F., et al., J Biol Chem (1987) 262:16157-16163; Biochemistry (1989) 28:661-666, cited above and incorporated herein by reference;
What is called IC50 is the concentration at which inhibition is half-maximal. Mvl-K-G-D-W-P-C-NH2 [Analog #49]: the IC50 came to 1500 nM.

As for “Mpr-K-G-D-H(2,4-DNP)-P-C-NH2 [Analog #56]”, the IC50 is 5000 nM.

Mvl-K-G-D-W-P-Pen-NH2 [Analog #58]: the IC50 stood at 1000 nM.
